From ChEMBL document CHEMBL4007421, “Discovery and Preclinical Characterization of 3-((4-(4-Chlorophenyl)-7-fluoroquinoline-3-yl)sulfonyl)benzonitrile, a Novel Non-acetylenic Metabotropic Glutamate Receptor 5 (mGluR5) Negative Allosteric Modulator for Psychiatric Indications” (J Med Chem, 2017) come the findings set out here.

By UniProt entry, the sequences of proteins in these tests, tags left out.
UniProt P31424, whole entry: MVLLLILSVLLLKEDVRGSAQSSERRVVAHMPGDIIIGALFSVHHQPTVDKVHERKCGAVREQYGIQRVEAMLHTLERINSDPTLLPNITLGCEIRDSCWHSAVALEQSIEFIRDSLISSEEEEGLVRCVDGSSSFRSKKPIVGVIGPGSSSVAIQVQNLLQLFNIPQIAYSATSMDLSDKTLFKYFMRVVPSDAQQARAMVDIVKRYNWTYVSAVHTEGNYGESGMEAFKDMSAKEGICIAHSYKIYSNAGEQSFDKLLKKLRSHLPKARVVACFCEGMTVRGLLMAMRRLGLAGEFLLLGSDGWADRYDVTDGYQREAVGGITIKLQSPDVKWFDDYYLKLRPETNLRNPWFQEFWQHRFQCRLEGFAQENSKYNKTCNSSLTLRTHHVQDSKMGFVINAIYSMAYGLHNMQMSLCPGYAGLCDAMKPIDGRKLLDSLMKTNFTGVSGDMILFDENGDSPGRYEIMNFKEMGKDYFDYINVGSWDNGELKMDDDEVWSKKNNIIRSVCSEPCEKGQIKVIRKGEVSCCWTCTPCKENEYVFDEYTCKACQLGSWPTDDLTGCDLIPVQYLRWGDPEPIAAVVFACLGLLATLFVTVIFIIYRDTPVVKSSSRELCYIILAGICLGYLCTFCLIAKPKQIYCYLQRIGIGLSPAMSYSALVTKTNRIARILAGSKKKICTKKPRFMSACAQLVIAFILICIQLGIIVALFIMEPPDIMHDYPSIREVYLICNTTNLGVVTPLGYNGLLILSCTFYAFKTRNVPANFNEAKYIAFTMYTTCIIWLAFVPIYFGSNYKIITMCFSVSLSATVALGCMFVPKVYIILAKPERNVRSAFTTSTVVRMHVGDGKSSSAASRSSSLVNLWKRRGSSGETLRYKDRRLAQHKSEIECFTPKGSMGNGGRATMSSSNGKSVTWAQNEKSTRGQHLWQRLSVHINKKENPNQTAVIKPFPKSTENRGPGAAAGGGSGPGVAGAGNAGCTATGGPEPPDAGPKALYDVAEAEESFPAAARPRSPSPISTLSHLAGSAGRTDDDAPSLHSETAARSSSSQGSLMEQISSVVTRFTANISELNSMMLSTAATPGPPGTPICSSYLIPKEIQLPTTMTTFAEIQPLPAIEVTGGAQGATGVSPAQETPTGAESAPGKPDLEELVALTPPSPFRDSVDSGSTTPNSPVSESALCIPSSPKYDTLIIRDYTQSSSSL

A word on the Ki: it is a dissociation constant, usually derived from enzyme kinetics or from competition with a known ligand. A lower Ki goes with higher affinity.

This test concerns the target Metabotropic glutamate receptor 5 (Rattus norvegicus, UniProt P31424). Kind of test: Displacement of [3H]M-MPEP from mGluR5 in Sprague-Dawley rat cerebrocortical membranes after 60 mins. Background: In a radioligand displacement assay an active substance lowers the binding of a labelled ligand.

Consider `Cc1cccc(C#Cc2ccccc2)n1`, for which the Ki was found to be 9.6 nM.
